How the values were obtained:
hTREK-1 [1] = target: T1, hTREK-1 (Homo sapiens, UniProt O95069); test: Thallium flux assay (FluxOR II Green) on HEK-hTREK-1 cells, incl. high throughput screening; settings: highest concentration tested (100 µM) compared to lowest (1.7 nM)
Method: Cells were plated in 384-well plates with black walls and clear bottom coated with poly-D-lysine (Greiner Bio-One, Kremsmünster, Austria, #781946) at a density of 25 000 cells/well from a 1 250 000 cells/mL solution. Cell counting was performed with an automatic cell counter (Countness II FL, ThermoFisher, Waltham, MA, USA) with addition of trypan blue 0.2% to exclude dead cells. 24 h after plating, cells were incubated with FluxOR II green probe (ThermoFisher) for 1 h in the dark, accordingly to the supplier’s protocol (‘no wash’ procedure) with addition of 77 mg/mL probenecide. […] Fluorescence was measured every 3 s during 1 min (excitation 485 nm, emission 515 nm), and 0.5 mM thallium was added to the wells after a 20 s baseline. […] Fluorescence is normalized using the formula (F − F0)/F0 where F0 is the average fluorescence during the first 18 s of the recording. ΔFmax/F0 is calculated between 18 and 33 s (−2 to 13 s relative to thallium addition). For dose–response curves, ΔFmax/F0 are expressed as %vehicle (100% corresponding to the average ΔFmax/F0 measured in vehicle-treated wells). For high throughput screening, Z scores were calculated as(1) Z=Xsample−X¯neg/σneg where X represents ΔFmax/F0 and σ the ΔFmax/F0 standard deviation. ‘neg’ represents negative controls (vehicle-treated wells). […]

Amino acid sequences for entries named in this document (tags omitted). Residues count along the entry.
UniProt O95069, 1-422 isoform 3: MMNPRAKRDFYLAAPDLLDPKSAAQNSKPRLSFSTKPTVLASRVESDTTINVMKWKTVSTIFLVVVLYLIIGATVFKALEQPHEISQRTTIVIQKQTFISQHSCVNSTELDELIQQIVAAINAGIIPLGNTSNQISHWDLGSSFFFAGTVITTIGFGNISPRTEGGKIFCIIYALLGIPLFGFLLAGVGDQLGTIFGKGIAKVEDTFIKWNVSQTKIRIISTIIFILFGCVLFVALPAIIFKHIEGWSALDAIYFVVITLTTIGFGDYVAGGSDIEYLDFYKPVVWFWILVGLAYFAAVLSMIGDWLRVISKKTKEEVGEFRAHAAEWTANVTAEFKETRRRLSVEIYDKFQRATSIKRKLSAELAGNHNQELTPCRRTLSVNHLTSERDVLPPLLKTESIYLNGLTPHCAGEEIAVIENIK
UniProt P57789, whole entry: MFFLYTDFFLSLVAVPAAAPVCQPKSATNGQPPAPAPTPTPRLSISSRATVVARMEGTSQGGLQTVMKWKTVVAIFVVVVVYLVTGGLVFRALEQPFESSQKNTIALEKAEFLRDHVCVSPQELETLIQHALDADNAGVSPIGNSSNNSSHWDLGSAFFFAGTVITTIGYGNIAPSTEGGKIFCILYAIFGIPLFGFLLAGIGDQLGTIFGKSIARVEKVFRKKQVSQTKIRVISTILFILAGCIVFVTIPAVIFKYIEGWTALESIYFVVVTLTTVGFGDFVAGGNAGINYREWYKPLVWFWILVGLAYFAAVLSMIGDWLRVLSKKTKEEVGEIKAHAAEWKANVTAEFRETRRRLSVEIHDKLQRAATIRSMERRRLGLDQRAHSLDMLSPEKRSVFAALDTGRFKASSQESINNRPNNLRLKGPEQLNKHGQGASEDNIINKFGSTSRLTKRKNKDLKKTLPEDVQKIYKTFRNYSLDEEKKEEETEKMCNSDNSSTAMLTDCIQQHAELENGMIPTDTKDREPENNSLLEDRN

hTREK-1 [2] = target: T1, hTREK-1; test: Whole cell patch clamp on HEK-hTREK-1 cells; settings: 50 µM
CD1 mice = test: Rotarod test; settings: i.p. 10 to 50 mg/kg, 15 min before the test
Method: To evaluate motor coordination, mice were placed on a 9 cm diameter rod with increasing rotating speed until they fell (rotarod apparatus, Bioseb, Vitrolles, France). The day before testing, animals were trained to the test until they could stay on the rod rotating at 4 rpm for 60 s. On test day, animals were placed on the rod at 4 rpm and the apparatus was set to accelerate from 4 to 40 rpm in 300 s. The test began when acceleration started and ended when the animal fell off the rod. The procedure was repeated three times with a 15 min recovery interval and the average latency to fall was calculated for each animal.
To search for possible adverse effects induced by LPS2336 in vivo, we submitted CD1 mice to different confounding tests aiming at characterizing motor coordination, balance, muscle strength and spontaneous locomotor activity. Animals received an intraperitoneal injection of LPS2336.HCl at a dose of 10 to 50 mg/kg 15 min before the test, corresponding to the peak of analgesic effect previously observed. […] Finally, we monitored the body temperature of mice for 45 min after intraperitoneal injection of LPS2336 at 40 mg/kg and could observe hypothermia in both WT and TREK-1 KO (−2.4 and −2.6 °C, respectively) following LPS2336 treatment (Figure 7F,G).

human TREK2 = human TREK2 (Homo sapiens, UniProt P57789); test: Whole cell patch clamp on HEK-hTREK2 cells; settings: 50 µM, p = 0.0959

Structure (SMILES): N#CCN1CCC(Cc2ccccc2)CC1 [LPS2336]
- increase in ΔFmax/F0 (hTREK-1 [1]): 2.26 fold
- current increase compared with free base (hTREK-1 [2]): comparable to that of LPS2336
- performance on rotarod (motor coordination) (CD1 mice): performed normally
- increase in TREK-2 current (human TREK2): 2.78 folds
